DT40 TDP1 CPT = growth inhibition of DT40 Tdp1-/-;hTDP1 cells with camptothecin (screen for TDP1 inhibitors). 420,000 compounds, 12% hits. Potency, µM (top dose mostly 46.2 µM), for the others: top-dose activity change, negative = growth inhibition, most hits filed as inhibitors. chicken DT40 Tdp1-/-;hTDP1 cells + 20 nM CPT, ATP luminescence, 48 h; also: potency is read from the fitted curve at half-maximal effect; % is scaled to controls: 0 for no effect and ±100 for the full control effect; nearly all actives have a fitted effect of over 55% in size
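Chicken DT40 Tdp1-/- cells complemented with human TDP1, 400 cells/well, exposed to compounds plus 20 nM camptothecin for at least 48 h at 37 C; viability read as ATP content by CellTiter-Glo luminescence.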
TDP1 inh = TDP1 (human) enzyme inhibition; recombinant TDP1, AlphaScreen DNA substrate cleavage; Potency, µM (top dose mostly 130 µM), for the others: top-dose activity change, negative = inhibition, most hits filed as inhibitors; 350,000 compounds, 0.28% hits; AID 485290; also: potency is read from the fitted curve at half-maximal effect; % is scaled to controls: 0 for no effect and ±100 for the full control effect; nearly all actives have a fitted effect of over 40% in size
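Recombinant E. coli-expressed Tdp1 (1 nM) preincubated with compound 15 min at RT, then 5'-biotin/3'-phosphotyrosine-FITC DNA substrate (15 nM) added for 5 min. AlphaScreen beads (10 ug/ml) added, 10 min RT; tyrosine-FITC cleavage read as signal loss.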
miR-21 reporter = raises the signal of a miR-21 reporter | HeLa miR-21 FLuc reporter, luciferase, 48 h | Potency, µM (highest dose often 38.3 µM), without a hit: at the top dose reporter change, positive = more light | 340,000 tested, under 10 active; active = well fitted rising curve with a large enough effect; inconclusive = small, poorly fitted or top-dose-only effect; inactive = no such curve, though single readings can be large or run the other way;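 note: % of control where 0% means no effect; miR-21 action dims this reporter so a rising signal means less miR-21 action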
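Compounds were titrated across several concentrations (up to approximately 40 uM) and incubated 48 hours with HeLa miR-21-FLuc reporter cells (miR-21 target sequence downstream of FLuc, endogenous miR-21). Readout was firefly luciferase luminescence after lytic detection reagent.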
uPA surface inh = blocks generation of uPA at the cell surface; cell surface uPA generation assay, qHTS; Potency, µM (series often up to 38.3 µM), for inactives: at the top dose activity change, negative = inhibition, actives largely listed as inhibitors; 330,000 compounds, 0.31% hits; AID 540303; active = well fitted inhibition curve with a large enough effect; inconclusive = small, poorly fitted or top-dose-only effect; inactive = no such curve, though single readings can be large or run the other way; tested in mouse RAW 264.7 cells; also: potency is read from the fitted curve at half-maximal effect; % is scaled to controls: 0 for no effect and ±100 for the full control effect; nearly all actives have a fitted effect of over 55% in size
TDP1 cell noCPT = qHTS for Inhibitors of human tyrosyl-DNA phosphodiesterase 1 (TDP1): qHTS in cells in absence of CPT; DT40 Tdp1-/- hTDP1 cells, no CPT, ATP luminescence, 48 h; Potency, µM (highest dose often 46.2 µM), inactives show top-dose activity change, negative = growth inhibition, usual class: inhibitors; 420,000 compounds, 15% hits; also: potency is read from the fitted curve at half-maximal effect; % is scaled to controls: 0 for no effect and ±100 for the full control effect; nearly all actives have a fitted effect of over 55% in size
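Chicken DT40 Tdp1-/- cells stably complemented with human TDP1 were seeded at 400 cells/well with DMSO in place of 20 nM camptothecin. After compound pinning, cells grew at least 48 hr at 37 °C; viability read by CellTiter-Glo luminescence.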
Starred values were filed as active, the others as inactive; ? = inconclusive; . = no result; ! = not confirmed by another sample; [ ] = dose if it differs, or a comment. Only some compounds are listed: those with a hit (about 16% of all), similar ones and a draw of the others. Unless noted, calls follow the shape of the dose curve; as a rule, active = well fitted curve in the direction sought with a large enough effect; inconclusive = small, poorly fitted or top-dose-only effect, or another doubt; inactive = no such curve, though single readings can be large; an effect the other way counts as inactive or inconclusive.

Fields: DT40 TDP1 CPT, TDP1 inh, miR-21 reporter, uPA surface inh, TDP1 cell noCPT
CC(C)(C)OC(=O)N1C[C@H](O)C[C@H]1C(=O)OCC(=O)c1ccc([N+](=O)[O-])cc1
→ 16µM*, 0%, -1%, 1%, ?
Cc1ccc(S(=O)(=O)N2CC(O)C[C@H]2C(=O)OCC(=O)c2ccccc2)cc1 (stereo partly drawn)
→ 4%, 0%, -3%, 1%, 2%
CCOC(=O)C1(Cc2cccc(Cl)c2)CCCN(CCO)C1 (stereo not drawn)
→ -5%, 2%, -3%, 0%, -22%
COc1ccc(Cl)cc1NC(=O)CN(C)C(=O)c1ccc(N2CCCCCC2)c([N+](=O)[O-])c1
→ 16µM*, 4%, ., ?, 23µM*
COc1ccc(NC(=O)CN(C)C(=O)c2ccc(N3CCCCC3)c([N+](=O)[O-])c2)cc1
→ ?, 5%, ., 0%, 15µM*
COc1ccc(NC(=O)CN(C)C(=O)c2ccc(N3CCCCCC3)c([N+](=O)[O-])c2)cc1
→ ?, 3%, ., -7%, ?
CN(CC(=O)Nc1ccc(Cl)c(C(F)(F)F)c1)C(=O)c1ccc(N2CCOCC2)c([N+](=O)[O-])c1
→ 23µM*, ., ., -4%, 26µM*
CN(CC(=O)Nc1ccccc1Cl)C(=O)c1ccc(N2CCCCCC2)c([N+](=O)[O-])c1
→ 23µM*, 8%, ., -2%, 18µM*
COc1cccc(CNC(=O)c2ccc(N3CCOCC3)c([N+](=O)[O-])c2)c1
→ -25%, ., -14%, 2%, -18%
Cc1cccc(NC(=O)CN(C)C(=O)c2ccc(N3CCCCCC3)c([N+](=O)[O-])c2)c1C
→ 23µM*, 4%, ., -12%, 18µM*
COc1cccc(CN(C)C(=O)c2ccc(N3CCCC3)c([N+](=O)[O-])c2)c1
→ 16µM*, 12%, -14%, 4%, 23µM*
CCCSc1ccc(C(=O)Nc2ccc(F)cc2F)cn1
→ 6%, 7%, -55%, -1%, 3%
CC12CCC(=O)CC1CCC1C2CCC2(C)C1CCC2(O)C(=O)CO (stereo not drawn)
→ -17%, ., ., 4%, -23%
O=C(COc1ccccc1-c1ccccc1)NN=C1CCCC1
→ -6%, 6%, 21%, 10µM*, ?
COc1ccc(/C=N/NC(=O)COc2ccccc2-c2ccccc2)cc1
→ 0.58µM*, 0%, 20%, -7%, 0.65µM*
COc1ccc(/C=N/NC(=O)CCn2cnc(-c3ccccc3)c2-c2ccccc2)cc1
→ 1.6µM*, 8%, 29%, 1.1µM*, 0.65µM*
COc1ccc(/C=N/NC(=O)CCSc2nc3ccccc3s2)cc1
→ 5.8µM*, 4%, 12%, 4µM*, 2.6µM*
Cc1cc2[nH]c(=O)c(=O)[nH]c2cc1S(=O)(=O)Nc1ccc(OC(F)(F)F)cc1
→ -1%, 5%, -7%, ., 21%
O=C(NCCN1CCOCC1)Nc1ccccc1
→ 2%, 5%, -1%, 3%, -13%
COc1ccc(C2Nc3ccccc3NC3=C2C(=O)CC(C)(C)C3)cc1O (stereo not drawn)
→ ?, ., -23%, -6%, ?

(continued)
Fields: DT40 TDP1 CPT, TDP1 inh, miR-21 reporter, uPA surface inh, TDP1 cell noCPT
CC(C)=CCOc1c2ccoc2c(OCC=C(C)C)c2oc(=O)ccc12
→ ?, -16%, ., -9%, ?
COc1ccc(CCNC(=O)C2CCCN2S(=O)(=O)c2ccc(F)cc2)cc1OC (stereo not drawn)
→ 1%, -4%, -2%, 1%, -10%
O=C(CCn1cnc(-c2ccccc2)c1-c1ccccc1)N/N=C/c1ccccc1O
→ 5.2µM*, 9%, 18%, ?, 4.6µM*
O=C(O)COc1ccccc1/C=N/NC(=O)COc1ccc(-c2ccccc2)cc1
→ 3%, 3%, -5%, 2%, 29µM*
COc1ccccc1/C=C/C=N/NC(=O)CCn1cnc2ccccc21
→ 16µM*, 7%, 22%, -13%, 10µM*
O=C(CCn1cnc2ccccc21)N/N=C/C=C/c1ccccc1
→ 12%, ., -6%, 0%, -1%
COc1ccc(/C=C/C(=O)Oc2cccc(/C=N/NC(=O)COc3c(C)cccc3C)c2)cc1
→ 21µM*, 1%, -9%, -4%, 15µM*
Cc1ccc(NC(=O)c2ccc3nc[nH]c3c2)c(O)c1
→ 1%, 0%, -59%, -1%, -9%
Cc1ccc(NC(=O)C2(c3ccccc3)CCCC2)nc1
→ ?, ., ., 3%, 15µM*
Cc1ccc(NC(=O)c2cccc(S(=O)(=O)N3CCN(c4ccccc4)CC3)c2)nc1
→ 21µM*, -8%[0.505 µM], ., -8%, 21µM*
Cc1ccc(NC(=O)c2ccc(C(=O)c3ccccc3)cc2)nc1
→ 18µM*, ., ., -8%, ?
O=C(Nc1ccccn1)C1(c2ccccc2)CCCC1
→ ?, 0%, 2%, ., ?
Cc1ccc(NC(=O)c2ccc3nc[nH]c3c2)nc1
→ 23µM*, 35µM*, -4%, -13%, 18µM*
Cc1ccc(NC(=O)c2cncc(Br)c2)nc1
→ -9%, 2%, -44%, -2%, 6%
CCN(CC(=O)NCc1ccc(Cl)cc1)C(=O)C1CCN(S(=O)(=O)c2ccc(OC)c(OC)c2)CC1
→ -7%, -2%, ., -3%, -25%
CC1=C(C(=O)Nc2ccccc2C(=O)NC2CCCCC2C)SCCO1 (stereo not drawn)
→ ?, 7%, 4%, 0%, ?
COCCOc1ccc(C(F)(F)F)cc1NC(=O)COC(=O)C1=COCCO1
→ 5%, 2%, ., -2%, -18%
O=C(CCC(=O)c1ccc(Cl)cc1)OCc1nc2ccsc2c(=O)[nH]1
→ -17%, ., ., 1%, -2%
Cc1ccc(C(=O)Nc2sc(C)c(C)c2C(=O)c2ccccc2)cc1
→ 16µM*, 5%, -14%, 1%, ?
Cc1sc(NC(=O)c2ccccc2)c(C(=O)c2ccccc2)c1C
→ ?, 11%, -15%, 1%, ?

A second format for 2 compounds above:
| SMILES | DT40 TDP1 CPT | TDP1 inh | miR-21 reporter | uPA surface inh | TDP1 cell noCPT |
| --- | --- | --- | --- | --- | --- |
| COc1ccc(/C=C/C(=O)Oc2cccc(/C=N/NC(=O)COc3c(C)cccc3C)c2)cc1 | 21µM* | 1% | -9% | -4% | 15µM* |
| COc1ccc(CCNC(=O)C2CCCN2S(=O)(=O)c2ccc(F)cc2)cc1OC (stereo not drawn) | 1% | -4% | -2% | 1% | -10% |

Remaining list, next part:
Fields: DT40 TDP1 CPT, TDP1 inh, miR-21 reporter, uPA surface inh, TDP1 cell noCPT
O=C1C2CC=CCC2C(=O)N1c1ccc(Cc2ccncc2)cc1 (stereo not drawn)
→ 18µM*, -1%, 6%, -6%, 11µM*
CCCC(CCC)C(=O)Nc1nnc2n1CCS2
→ -14%, 0%, -4%, ., -29%
Cc1ccc(C(=O)N2CCN(Cc3ccc4c(c3)OCO4)CC2)o1
→ -5%, 6%, -5%, -1%, -8%
O=C(c1ccc(COc2ccc(Cl)cc2)o1)N1CCN(Cc2ccc3c(c2)OCO3)CC1
→ ?, 5%, 0%, 3%, 11µM*
O=C(c1ccc(COc2ccccc2Cl)o1)N1CCN(Cc2ccc3c(c2)OCO3)CC1
→ 16µM*!, 7%, -4%, 17%, 21µM*
O=C(c1cc2ccccc2o1)N1CCN(Cc2ccc3c(c2)OCO3)CC1
→ -3%, 6%, 0%, 9%, -6%
COc1ccccc1OCc1ccc(C(=O)N2CCCCC2)o1
→ 2%, ., -14%, -1%, 0%

Record cards (already shown).
O=C(c1cc2ccccc2o1)N1CCN(Cc2ccc3c(c2)OCO3)CC1 as listed: DT40 TDP1 CPT: -3%; TDP1 inh: 6%; miR-21 reporter: 0%; uPA surface inh: 9%; TDP1 cell noCPT: -6%
COc1ccccc1OCc1ccc(C(=O)N2CCCCC2)o1 as listed: DT40 TDP1 CPT: 2%; TDP1 inh: .; miR-21 reporter: -14%; uPA surface inh: -1%; TDP1 cell noCPT: 0%
